How the values were obtained:
[1] = target: Delta-type opioid receptor (Homo sapiens, UniProt P41143)
[2] = target: Kappa-type opioid receptor (Cavia porcellus, UniProt P41144)
[3] = target: Kappa-type opioid receptor (Homo sapiens, UniProt P41145)
Mu-type opioid receptor [4] = target: Mu-type opioid receptor (Homo sapiens, UniProt P35372)
[5] = target: Delta-type opioid receptor (Sus scrofa, UniProt P79291)
Mu-type opioid receptor [6] = target: Mu-type opioid receptor (Cavia porcellus, UniProt P97266)

Amino acid sequences for entries named in this document (tags omitted). A change or cut given only in a name is not applied to a line headed by its entry.
UniProt P41143, whole entry: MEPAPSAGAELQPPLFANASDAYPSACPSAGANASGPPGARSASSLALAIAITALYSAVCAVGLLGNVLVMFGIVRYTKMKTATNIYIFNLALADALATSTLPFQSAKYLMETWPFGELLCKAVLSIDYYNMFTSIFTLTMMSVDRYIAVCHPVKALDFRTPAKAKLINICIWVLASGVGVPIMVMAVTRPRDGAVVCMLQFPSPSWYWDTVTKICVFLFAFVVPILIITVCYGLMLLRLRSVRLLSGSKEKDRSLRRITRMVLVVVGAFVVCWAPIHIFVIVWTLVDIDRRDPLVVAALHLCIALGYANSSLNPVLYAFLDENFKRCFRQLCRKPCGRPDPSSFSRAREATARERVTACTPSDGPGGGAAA
UniProt P41144: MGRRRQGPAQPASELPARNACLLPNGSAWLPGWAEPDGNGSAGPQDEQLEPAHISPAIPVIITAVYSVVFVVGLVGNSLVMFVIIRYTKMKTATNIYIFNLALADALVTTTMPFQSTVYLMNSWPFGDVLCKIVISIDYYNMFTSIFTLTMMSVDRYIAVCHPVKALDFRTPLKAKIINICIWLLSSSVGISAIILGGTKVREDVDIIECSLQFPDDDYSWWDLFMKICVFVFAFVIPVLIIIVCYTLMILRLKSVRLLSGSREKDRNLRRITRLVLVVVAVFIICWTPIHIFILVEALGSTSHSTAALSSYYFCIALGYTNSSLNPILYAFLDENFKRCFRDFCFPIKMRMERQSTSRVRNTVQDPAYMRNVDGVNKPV
UniProt P41145: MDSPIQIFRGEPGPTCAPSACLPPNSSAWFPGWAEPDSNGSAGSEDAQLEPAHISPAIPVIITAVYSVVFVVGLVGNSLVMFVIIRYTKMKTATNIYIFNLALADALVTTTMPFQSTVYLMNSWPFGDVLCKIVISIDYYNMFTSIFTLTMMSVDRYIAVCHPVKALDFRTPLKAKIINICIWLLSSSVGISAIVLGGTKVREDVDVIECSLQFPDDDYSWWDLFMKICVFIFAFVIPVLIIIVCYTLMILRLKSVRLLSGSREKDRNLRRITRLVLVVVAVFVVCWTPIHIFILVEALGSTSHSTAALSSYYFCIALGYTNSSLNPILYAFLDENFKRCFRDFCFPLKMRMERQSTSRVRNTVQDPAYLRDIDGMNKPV
UniProt P35372, whole entry: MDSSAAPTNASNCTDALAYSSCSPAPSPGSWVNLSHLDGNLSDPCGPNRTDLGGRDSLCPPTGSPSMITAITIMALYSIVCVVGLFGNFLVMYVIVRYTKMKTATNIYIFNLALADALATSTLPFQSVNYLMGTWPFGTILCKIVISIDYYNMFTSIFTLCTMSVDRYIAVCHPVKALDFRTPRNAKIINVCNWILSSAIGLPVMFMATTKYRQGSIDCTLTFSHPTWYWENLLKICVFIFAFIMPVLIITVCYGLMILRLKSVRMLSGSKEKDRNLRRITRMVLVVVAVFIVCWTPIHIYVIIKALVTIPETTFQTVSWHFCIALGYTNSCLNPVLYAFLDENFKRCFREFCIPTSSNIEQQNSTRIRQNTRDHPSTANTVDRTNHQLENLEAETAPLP
UniProt P79291, whole entry: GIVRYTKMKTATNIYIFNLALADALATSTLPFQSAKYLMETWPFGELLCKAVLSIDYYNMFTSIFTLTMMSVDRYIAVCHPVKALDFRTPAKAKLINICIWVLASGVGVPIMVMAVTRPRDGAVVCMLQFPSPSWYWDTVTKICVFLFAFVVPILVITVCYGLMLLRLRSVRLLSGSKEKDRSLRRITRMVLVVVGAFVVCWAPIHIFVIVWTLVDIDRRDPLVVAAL
UniProt P97266, whole entry: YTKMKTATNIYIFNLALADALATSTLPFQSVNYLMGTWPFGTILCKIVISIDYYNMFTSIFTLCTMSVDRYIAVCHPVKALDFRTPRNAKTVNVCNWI

SMILES: N[C@@H](Cc1ccc(O)cc1)C(=O)N1Cc2ccccc2C[C@H]1CN[C@@H](Cc1ccccc1)C(=O)N[C@@H](Cc1ccccc1)C(=O)O [TIPP-PSI]
- Ki [1]: 0.001 µM
- Ki [2]: > 10 µM
- Ki [3]: > 10 µM
- Ki (Mu-type opioid receptor [4]): > 10 µM
- Ki [5]: 0.0006 µM
- Ki (Mu-type opioid receptor [6]): > 10 µM

Source: BindingDB's records for PubMed 9686407 (Sri International, 1998)
